# Assay results from BindingDB's records for doi:10.1124/jpet.102.039867 (Institut De Recherches Servier, 2002).
# The chains behind the UniProt entries cited, without tags or fusion partners.
# UniProt P18089, whole entry: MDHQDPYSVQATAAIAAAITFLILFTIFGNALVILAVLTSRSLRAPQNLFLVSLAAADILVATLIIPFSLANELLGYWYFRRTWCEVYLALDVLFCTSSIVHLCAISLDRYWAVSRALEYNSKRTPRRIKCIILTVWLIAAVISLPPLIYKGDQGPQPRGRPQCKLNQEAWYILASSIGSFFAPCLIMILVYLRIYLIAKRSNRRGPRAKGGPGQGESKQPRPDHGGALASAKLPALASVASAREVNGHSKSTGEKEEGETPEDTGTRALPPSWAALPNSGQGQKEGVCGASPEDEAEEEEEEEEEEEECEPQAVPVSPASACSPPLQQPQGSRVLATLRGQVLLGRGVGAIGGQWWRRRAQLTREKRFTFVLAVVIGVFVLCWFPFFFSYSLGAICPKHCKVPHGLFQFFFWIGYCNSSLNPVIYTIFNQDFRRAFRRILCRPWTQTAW
# UniProt P25100, whole entry: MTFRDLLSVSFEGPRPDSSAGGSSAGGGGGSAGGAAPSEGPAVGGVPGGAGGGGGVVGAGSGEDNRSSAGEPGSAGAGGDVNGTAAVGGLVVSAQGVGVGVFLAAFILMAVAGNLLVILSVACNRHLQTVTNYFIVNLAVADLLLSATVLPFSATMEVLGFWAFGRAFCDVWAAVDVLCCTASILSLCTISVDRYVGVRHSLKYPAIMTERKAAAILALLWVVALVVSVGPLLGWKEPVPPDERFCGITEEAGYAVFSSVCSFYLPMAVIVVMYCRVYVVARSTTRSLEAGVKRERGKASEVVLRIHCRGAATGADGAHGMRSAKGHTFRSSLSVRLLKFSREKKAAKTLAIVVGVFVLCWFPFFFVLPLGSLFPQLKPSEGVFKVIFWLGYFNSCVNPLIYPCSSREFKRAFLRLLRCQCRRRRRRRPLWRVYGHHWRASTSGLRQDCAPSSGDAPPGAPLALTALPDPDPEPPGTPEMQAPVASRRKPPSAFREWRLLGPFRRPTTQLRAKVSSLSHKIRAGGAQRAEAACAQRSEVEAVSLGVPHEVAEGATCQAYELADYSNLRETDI
# UniProt P14416, whole entry: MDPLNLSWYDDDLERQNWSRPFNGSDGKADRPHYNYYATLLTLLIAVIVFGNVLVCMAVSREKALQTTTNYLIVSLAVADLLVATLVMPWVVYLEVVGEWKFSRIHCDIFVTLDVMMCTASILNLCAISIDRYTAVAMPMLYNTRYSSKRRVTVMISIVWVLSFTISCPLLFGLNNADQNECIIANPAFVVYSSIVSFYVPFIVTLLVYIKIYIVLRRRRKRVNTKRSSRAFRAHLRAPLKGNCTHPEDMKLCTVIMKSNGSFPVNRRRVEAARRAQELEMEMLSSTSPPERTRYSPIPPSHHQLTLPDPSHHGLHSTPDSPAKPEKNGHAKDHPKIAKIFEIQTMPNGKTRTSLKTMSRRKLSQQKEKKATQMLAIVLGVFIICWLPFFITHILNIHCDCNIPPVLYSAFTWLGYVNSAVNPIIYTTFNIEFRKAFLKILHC
# UniProt P21917, whole entry: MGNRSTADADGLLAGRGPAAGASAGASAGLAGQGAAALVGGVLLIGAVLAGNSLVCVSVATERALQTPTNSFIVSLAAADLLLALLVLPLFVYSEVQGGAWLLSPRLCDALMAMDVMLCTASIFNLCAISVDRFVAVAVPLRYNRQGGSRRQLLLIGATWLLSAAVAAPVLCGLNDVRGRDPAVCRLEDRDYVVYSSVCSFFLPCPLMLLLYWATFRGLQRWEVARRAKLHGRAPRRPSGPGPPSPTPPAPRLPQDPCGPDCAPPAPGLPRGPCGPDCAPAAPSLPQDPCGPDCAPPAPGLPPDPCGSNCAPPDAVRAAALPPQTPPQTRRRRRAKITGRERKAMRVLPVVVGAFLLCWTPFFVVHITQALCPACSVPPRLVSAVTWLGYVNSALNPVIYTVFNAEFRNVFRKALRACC
# Legend:
# [1] = target: Alpha-2B adrenergic receptor (Homo sapiens, UniProt P18089)
# [2] = target: Alpha-1D adrenergic receptor (Homo sapiens, UniProt P25100)
# D(2) dopamine receptor = D(2) dopamine receptor (Homo sapiens, UniProt P14416)
# D(4) dopamine receptor = D(4) dopamine receptor (Homo sapiens, UniProt P21917)
SMILES,Ki [1],other results
CCN(CC)C(=O)N[C@H]1C[C@@H]2c3cccc4[nH]cc(c34)C[C@H]2N(C)C1,0.00045 µM,–
CN1CCc2cccc3c2[C@H]1Cc1ccc(O)c(O)c1-3 [APOKYN],0.0661 µM,Ki [2]: 0.0646 µM
Oc1ccc2[nH]cc(CCCCN3CC=C(c4ccccc4)CC3)c2c1,0.00457 µM,Ki (D(2) dopamine receptor): 0.00437 µM
CCCN1CCC[C@@H]2Cc3n[nH]cc3C[C@H]21 [NSC_54562],2.51 µM,–
c1cnc(N2CCN(Cc3ccc4c(c3)OCO4)CC2)nc1 [NSC_4850],–,Ki (D(4) dopamine receptor): 0.302 µM
CCCNC1CCc2nc(N)sc2C1 (centres undefined) [Pramipexole],0.631 µM,–
CCCN(CCC)CCc1cccc2c1CC(=O)N2,0.759 µM,–
